# Measured affinities in a library of Ab-14 heavy chain variants

Antigen: PDVDLGDISGINAS, a 14-residue peptide of the SARS-CoV-2 spike HR2 region.

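The parent was found by panning a naive human phage display library on the peptide. These sequences belong to a second round, designed from the earlier measurements on random variants of the parent. Group labels follow the data file (Ctrl: baseline library sampled from a position-specific scoring matrix, with some repeated check sequences; GPLM: also part of the Gaussian process libraries; Gen: genetic algorithm; Gibbs: Gibbs sampling; a sequence that several methods proposed may carry one label only). AlphaSeq pools MATa yeast showing the antibodies with MATalpha yeast showing the peptide. Mating (16 h, 30 °C) was followed by selection of diploids and sequencing of their barcodes. Each replicate has its own calibration line, from reference interactions of the BCL2 family. Each pool was mated in six replicate cultures.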

Ab-14 is the parent antibody, in scFv form: VH, then a 15-residue (Gly4Ser)3 linker, then VL. The light chain is unchanged in all variants.
VH: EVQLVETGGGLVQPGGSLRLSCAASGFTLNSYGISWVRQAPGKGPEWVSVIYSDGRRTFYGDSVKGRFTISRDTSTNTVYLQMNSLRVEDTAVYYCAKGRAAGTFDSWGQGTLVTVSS
VL: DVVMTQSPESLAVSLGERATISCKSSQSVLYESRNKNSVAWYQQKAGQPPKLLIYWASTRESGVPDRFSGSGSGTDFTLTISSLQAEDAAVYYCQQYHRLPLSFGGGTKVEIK

Changes read parent residue, position, new residue, counted from the first residue of the VH shown.
The read-out is the apparent dissociation constant on a log10 scale (nM): the lower, the stronger.
"n.d." means that the variant was in the library but no mating with the target was seen in that replicate; the authors take this as a sign of poor binding, and no number exists.
The range of this assay differs from that of the first round, and the authors advise against merging the two.
Some sequences occur more than once in the pool; their replicates are listed entry by entry, parted by semicolons.
Background: pairings of all heavy chain designs with three empty control strains gave a value in 1% of cases (median 2.08, 5th percentile 0.84). Values in that range, when seen in few replicates, are hard to tell from nonspecific mating. Also given: how often the same scFv was detected with the empty control strains, with their mean in brackets.
The authors' rule: three or more of the six replicates give a measured affinity, fewer mean a poor binder.

changes,group,log10 Kd (nM) by replicate,signal with controls
S31E+V64F+A102S,Ctrl,-0.47 -0.43 n.d. -0.27 -1.54 -0.89,0 of 18
S53A+F59A+G99E+R100D+S107Q,Ctrl,n.d. n.d. n.d. n.d. n.d. n.d.,0 of 18
T28G+N30T+D62N+G99D,Ctrl,n.d. n.d. n.d. n.d. n.d. n.d.,0 of 18
G61D+R100S+D106M,Ctrl,n.d. n.d. n.d. n.d. n.d. n.d.,0 of 18
N30C+I34Y+R56E+F59A+G99L,Ctrl,n.d. n.d. n.d. n.d. n.d. n.d.,0 of 18
S31D+R100M+S107L,Ctrl,0.00 -0.48 -0.49 0.60 -0.65 1.06,0 of 18
T28S+S31E,Ctrl+GPLM_Gen,-0.35 -0.16 -0.19 -0.46 -0.46 -0.19; 0.12 -0.28 -0.16 -0.68 -0.65 -0.13,0 of 36
F59A+K65V,Ctrl,1.66 1.93 2.81 2.54 1.49 1.63,0 of 18
A101L+D106E,Ctrl,1.92 2.12 n.d. 2.41 2.57 2.15,0 of 18
G103P+T104W+F105A,Ctrl,n.d. n.d. n.d. n.d. n.d. n.d.,0 of 18
T28D+N30E+R100K+S107T,Ctrl,1.21 0.82 0.47 0.62 0.54 0.98,1 of 18 (2.14)
F27E+N30M+A101E+F105G,Ctrl,n.d. n.d. n.d. n.d. n.d. n.d.,0 of 18
T28N+G61S+R100K,Ctrl+GPLM_Gibbs,0.07 0.59 -0.53 0.61 1.41 -0.10; n.d. n.d. n.d. n.d. n.d. n.d.,0 of 36
G61L+R100D,Ctrl,n.d. n.d. n.d. n.d. n.d. n.d.,0 of 18
S31E+R100K+D106T,Ctrl,n.d. n.d. 2.53 n.d. n.d. n.d.,0 of 18
T28E+R100Q+S107W,Ctrl,n.d. n.d. n.d. n.d. n.d. n.d.,0 of 18
S31E+Y60M+A102T,Ctrl,n.d. n.d. n.d. n.d. n.d. n.d.,0 of 18
T58V+R100D+G103L+D106W,Ctrl,n.d. n.d. n.d. n.d. n.d. n.d.,0 of 18
G26D+N30S+R100K,Ctrl,1.01 1.40 0.88 0.95 0.72 1.58,0 of 18
S63R+A101N+A102M+F105G+S107H,Ctrl,n.d. n.d. n.d. n.d. n.d. n.d.,0 of 18
F27T+T28D+G33W+A101M,Ctrl,n.d. n.d. n.d. n.d. n.d. n.d.,0 of 18
T28N+Y52I+S53A+F105G+D106S,Ctrl,n.d. n.d. n.d. n.d. n.d. n.d.,0 of 18
T28E+S53A+T58V+D106E,Ctrl,-0.09 -0.51 -0.22 -0.77 0.28 -0.15,0 of 18
T28C+G99I+R100D+A101I,Ctrl,n.d. n.d. n.d. n.d. n.d. n.d.,0 of 18
F59Y+Y60M+G61A,Ctrl,n.d. 0.84 n.d. 0.51 0.18 1.76,0 of 18
S31E+R56W,Ctrl,1.37 0.85 1.22 2.64 1.42 1.53,1 of 18 (2.07)
D62Q+T104R+D106L,Ctrl,n.d. n.d. n.d. n.d. n.d. n.d.,1 of 18 (0.98)
L29I+G61S+G103Y+D106L,Ctrl,n.d. 1.87 n.d. 2.84 n.d. 1.25,0 of 18
G61K+S63N+K65S+T104G+F105N,Ctrl,n.d. n.d. n.d. n.d. n.d. n.d.,0 of 18
N30D+A101G,Ctrl,n.d. n.d. n.d. n.d. n.d. n.d.,0 of 18
N30E+F59S+S63D,Ctrl,n.d. n.d. n.d. n.d. n.d. n.d.,0 of 18

Extract of 2 entries:

changes	group	log10 Kd (nM) by replicate	signal with controls
N30E+F59S+S63D	Ctrl	n.d. n.d. n.d. n.d. n.d. n.d.	0 of 18
L29I+G61S+G103Y+D106L	Ctrl	n.d. 1.87 n.d. 2.84 n.d. 1.25	0 of 18

Values reported by Li et al. 2023, doi:10.1038/s41467-023-39022-2 (FLAb copy).